# Tested on: BCR/ABL-associated tyrosine kinase activity
# Test: Anti-phosphotyrosine Western blotting
# Settings: K562 cells, 20 μM, 4 hour treatment
compound,measurement,value
COC(=O)c1ccc(NCc2cc(O)ccc2O)cc1 [AG957],BCR/ABL associated tyrosine phosphorylation,abrogates all phosphotyrosine activity with the exception of the 80 kda protein
